# Biological target: Beta-secretase 1 (Homo sapiens, UniProt P56817)
# Experiment: The substrate was dissolved at 1 mg/mL in DMSO.The assay was performed in the presence of 5 ul OptiMEM (supernatant collected over 24 hours and cleared from cellular debris by centrifugation) containing the ectodomain of BACE, 25 ul water containing the desired concentration of test compound and 1% DMSO, substrate peptide, 20 mM NaOAc, pH 4.4 and 0.04% Triton-X100 in a total assay volume of 50 ul in a 384 well plate. In general, 25 ul of compound dilution were given to the plate followed by the addition of 10 ul of BACE.
row,SMILES,IC50
1,COc1cccc(Oc2ccc3c(c2)C2(N=C(N)N(C)C2=O)C2(CCC(OC)CC2)C3)c1 (configuration not stated),42.8 nM
2,COCCN1C(=O)C2(N=C1N)c1cc(-c3cccc(C#N)c3)ccc1CC21CCC(OC)CC1 (configuration not stated),7.4 nM
